Here are results for one compound from patent USRE35517E, “Method, compositions, and compounds for modulating brain excitability” (priority 1992, dated 1997).

Molecules are shown by their SMILES.

The test system of the assay is GABA/benzodiazepine receptor-chloride ionopore complex (GBR complex). Briefly: Dissociation kinetics of [35S]TBPS in rat cerebral cortical membranes. The class given is binding. The settings on record: [35S]TBPS dissociation, rat cortex; Na pentobarbital, 300 nM alphaxalone, 20 nM a-OH-DHP.

`CC(=O)[C@H]1CC[C@H]2[C@@H]3CC[C@H]4C[C@H](O)CC[C@]4(C)[C@H]3CC[C@]12C` [3α-OH-DHP, 3α-hydroxy-5α-pregnan-20-one]: the “k-1, R (rapidly dissociating component)” value stood at 0.122 ± 0.030 min⁻¹.
